Assay: Body weight in SHAM and OVX female rats infused with further amylin agonists (Example 4)
Format: in vivo, rat
Conditions: 2 μg/kg/day infusion
Excerpt: Female obesity-prone rats (n=36; CRL:CD-OP, Charles River, Wilmington, Mass.) were pre-fattened for approximately 4 months on 32% kcal/fat purified high fat diet (D12366B, Research Diets, New Brunswick, N.J.) to induce obesity in this model. Rats were then weight-matched (mean body weight 311±4 g) and subjected to either bilateral ovariectomy surgery (OVX; n=24), or sham surgery (SHAM; n=12). Rats were allowed approximately 3 weeks to recover from surgery, and after one week recovery a cohort of the OVX group (n=12) began to receive estrogen replacement (OVX+E; 2 ug β-estradiol (Sigma-Aldrich, St Louis, Mo.) in peanut oil subcutaneously every four days). […] Food intake and body weight were measured weekly. Body composition was assessed on day −1 and at termination by NMR (Echo Medical Systems, Houston, Tex.). On day 28 animals were euthanized by isoflurane overdose and cardiac blood collected.
Female obesity-prone rats were treated as described above in Example 3 to generate another set of SHAM, OVX, and OVX+E rats. Each group of rats was administered either vehicle or one of the following amylin agonists: 50 μg/kg/day of SEQ ID NO: 20; 2 μg/kg/day of SEQ ID NO: 137; or 5 μg/kg/day of SEQ ID NO: 142. […]

Sequence: KCNTATCVLGRLSQELHRLQTYPRTNTGSNTY [SEQ ID NO: 137]
- Weight loss in OVX rats relative to SHAM rats: either enhanced similar weight loss

Source: patent US20120071401A1, “AMYLIN AGONIST COMPOUNDS FOR ESTROGEN-DEFICIENT MAMMALS” (Amylin Pharamaceuticals, Inc., priority 2009, published 2012)
